This is an account of results in ChEMBL document CHEMBL1914282 (J Med Chem, 2011).

Chains of the proteins cited; added tags and fusions are not shown. Lines headed by an entry give the natural chain unless they say otherwise; changes in a name come on top.
UniProt Q9HC97: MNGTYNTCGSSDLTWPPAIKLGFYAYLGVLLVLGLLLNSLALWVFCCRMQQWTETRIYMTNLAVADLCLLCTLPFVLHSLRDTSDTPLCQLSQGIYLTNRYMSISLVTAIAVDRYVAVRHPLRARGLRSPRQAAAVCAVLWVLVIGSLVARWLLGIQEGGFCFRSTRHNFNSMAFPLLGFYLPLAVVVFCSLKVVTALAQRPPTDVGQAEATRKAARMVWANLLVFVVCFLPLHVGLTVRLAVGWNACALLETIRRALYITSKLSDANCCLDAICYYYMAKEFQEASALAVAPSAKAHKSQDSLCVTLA

Activity calls are given as the source filed them. The calls are words filed in the database; no cut-off is given here.

Assay type in all cases: functional, cell-based
The target in test [1] is T1, G-protein coupled receptor 35 (Homo sapiens, UniProt Q9HC97). As to the kind of experiment: Agonist activity at GPR35 in human HT-29 cells after 1 hr by dynamic mass redistribution assay in presence of 64 uM GPR35 antagonist SPB05142.
The target in test [2] is T1, G-protein coupled receptor 35. As to the kind of experiment: Agonist activity at GPR35 in human HT-29 cells after 1 hr by dynamic mass redistribution assay in presence of GPR35 antagonist SPB05142.
For test [3] the target is unchanged. In words: Agonist activity at GPR35 in human HT-29 cells after 1 hr by dynamic mass redistribution assay relative to zaprinast. Further details: concentration or dose not given beside the values. The gist of the method:
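HT-29 monolayer grown overnight on resonant waveguide grating biosensor plates. Cells washed twice, held in HBSS (20 mM Hepes, pH 7.1) for 1 h at 26 °C, then a 2 min baseline taken before compound addition. Response recorded as resonant wavelength shift (pm) over 1 h. […] Compounds diluted from 10 mM DMSO stocks.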

Test [4] shares this target. As to the kind of experiment: Agonist activity at GPR35 in human U20S cells expressing beta-lactamase and GPR35-GA14-VP16 transcription factor fusion protein assessed as transcriptional activation after 5 hrs by tango beta-arrestin translocation reporter assay relative to zaprinast. As to conditions: U2OS. The procedure, abridged: (§1)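 Tango GPR35-bla U2OS cells, which express GPR35–TEV site–Gal4-VP16 and β-arrestin/TEV protease, seeded at 10000 cells/well and cultured overnight. Ligand stimulation for 5 h at 37 °C/5% CO2, then 2 h with LiveBLAzer FRET B/G substrate. Coumarin:fluorescein ratio read as reporter response, doses up to 128 μM, n = 4.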

For test [5] the target is unchanged. As to the kind of experiment: Agonist activity at GPR35 in human U20S cells expressing beta-lactamase and GPR35-GA14-VP16 transcription factor fusion protein assessed as transcriptional activation up to 128 uM after 5 hrs by tango beta-arrestin translocation reporter assay. As to conditions: U2OS. The gist of the method: as §1

`CCCCc1ccc(C2(C)OC(=C(C#N)C#N)C(C#N)=C2C)cc1` (stereo not drawn): the outcome in test [1], in test [2], in test [4] and in test [5] was inactive. The Activity in test [3] is 100%.
For `CC1=C(C#N)C(=C(C#N)C#N)OC1(C)c1ccc(F)cc1F` (stereo not drawn), the outcome in test [1] and in test [2] was Active. The molecule further had an Activity in test [3] of 99%. Further, the outcome in test [4] and in test [5] was inactive.
Turning to `CCOC(=O)c1sc2c(Br)csc2c1C`, the outcome in test [1], in test [2], in test [3], in test [4] and in test [5] was inactive.
On to `CC1=C(C#N)C(=C(C#N)C#N)OC1(C)c1c(F)c(F)c(F)c(F)c1F` (stereo not drawn), for which the outcome in test [1], in test [2], in test [4] and in test [5] was inactive. In test [3], this molecule registered an Activity of 84%.
Regarding `CCCCCCCCCCCCCCCc1c(C(=O)O)sc2c(Br)csc12`, the result in test [1], in test [2], in test [4] and in test [5] was inactive. Besides, the Activity in test [3] is 81%.
For the molecule `O=C(O)c1cc2sccc2s1`, the outcome in test [1], in test [2] and in test [4] was inactive.
